# “And” between values parts separate entries of the source, which are not always exact repeats. Equal entries are not always repeated. Where two headings read alike, the source gives them in different places.
# Test system: PC3-PIP and PC3-flu tumor-bearing BALB/c nu/nu mice
# Conditions: for biodistribution blood / biodistribution bone / biodistribution brain / biodistribution heart / biodistribution intestine / biodistribution kidney / biodistribution liver / biodistribution lung / biodistribution muscle / biodistribution spleen / biodistribution tail / biodistribution tumor PC3-PIP / biodistribution tumor PC3-flu: i.v., n = 3; for PC3-PIP-to-PC3-flu ratio / PC3-PIP-to-blood ratio / PC3-PIP-to-kidney ratio / PC3-PIP-to-muscle ratio / PC3-PIP-to-spleen ratio: averages (n = 3); for PC3 flu tumor retention: at all time-points (1, 2, 24 h p.i.); for tumor-to-kidney ratio: time not stated, before the 24 h p.i. value
smiles,measurement,setting,value
O=C([O-])CN1CCN(CC(=O)[O-])CCN(CC(=O)NCc2ccc(C(=O)N[C@@H](C/C=C/c3ccccc3)C(=O)NCCCC[C@H](NC(=O)N[C@@H](CCC(=O)O)C(=O)O)C(=O)O)cc2)CCN(CC(=O)[O-])CC1.[177Lu+3] [[^177Lu]Lu-P18],biodistribution blood,1 h p.i.,0.19 ± 0.06 % IA/g
same,biodistribution bone,1 h p.i.,0.28 ± 0.01 % IA/g
same,biodistribution brain,1 h p.i.,0.03 ± 0.01 % IA/g
same,biodistribution heart,1 h p.i.,0.36 ± 0.08 % IA/g
same,biodistribution intestine,1 h p.i.,0.20 ± 0.08 % IA/g
same,biodistribution kidney,1 h p.i.,~150 % IA/g and 147 ± 5 % IA/g
same,biodistribution liver,1 h p.i.,0.25 ± 0.01 % IA/g
same,biodistribution lung,1 h p.i.,1.3 ± 0.2 % IA/g
same,biodistribution muscle,1 h p.i.,0.19 ± 0.05 % IA/g
same,biodistribution spleen,1 h p.i.,~14 % IA/g and 14.6 ± 3.5 % IA/g
same,biodistribution tail,1 h p.i.,0.79 ± 0.08 % IA/g
same,biodistribution tumor PC3-PIP,1 h p.i.,19.8 ± 2.3 % IA/g
same,biodistribution tumor PC3-flu,1 h p.i.,0.62 ± 0.46 % IA/g
same,PC3-PIP-to-PC3-flu ratio,1 h p.i.,31.9
same,PC3-PIP-to-blood ratio,1 h p.i.,106
same,PC3-PIP-to-kidney ratio,1 h p.i.,0.14
same,PC3-PIP-to-muscle ratio,1 h p.i.,103
same,PC3-PIP-to-spleen ratio,1 h p.i.,1.4
same,biodistribution blood,2 h p.i.,0.06 ± 0.01 % IA/g
same,biodistribution bone,2 h p.i.,0.63 ± 0.78 % IA/g
same,biodistribution brain,2 h p.i.,0.02 ± 0.01 % IA/g
same,biodistribution heart,2 h p.i.,0.21 ± 0.02 % IA/g
same,biodistribution intestine,2 h p.i.,0.10 ± 0.01 % IA/g
same,biodistribution kidney,2 h p.i.,135 ± 11 % IA/g
same,biodistribution liver,2 h p.i.,0.16 ± 0.02 % IA/g
same,biodistribution lung,2 h p.i.,0.68 ± 0.12 % IA/g
same,biodistribution muscle,2 h p.i.,0.14 ± 0.02 % IA/g
same,biodistribution spleen,2 h p.i.,8.5 ± 1.0 % IA/g
same,biodistribution tail,2 h p.i.,0.77 ± 0.32 % IA/g
same,biodistribution tumor PC3-PIP,2 h p.i.,17.5 ± 2.3 % IA/g
same,biodistribution tumor PC3-flu,2 h p.i.,0.49 ± 0.51 % IA/g
same,PC3-PIP-to-PC3-flu ratio,2 h p.i.,36.1
same,PC3-PIP-to-blood ratio,2 h p.i.,276
same,PC3-PIP-to-kidney ratio,2 h p.i.,0.13
same,PC3-PIP-to-muscle ratio,2 h p.i.,124
same,PC3-PIP-to-spleen ratio,2 h p.i.,2.1
same,biodistribution blood,24 h p.i.,0.01 ± 0.01 % IA/g
same,biodistribution bone,24 h p.i.,0.10 ± 0.08 % IA/g
same,biodistribution brain,24 h p.i.,0.01 ± 0.01 % IA/g
same,biodistribution heart,24 h p.i.,0.03 ± 0.01 % IA/g
same,biodistribution intestine,24 h p.i.,0.02 ± 0.01 % IA/g
same,biodistribution kidney,24 h p.i.,~25 % IA/g and 25.4 ± 10.3 % IA/g
same,biodistribution liver,24 h p.i.,0.10 ± 0.02 % IA/g
same,biodistribution lung,24 h p.i.,0.13 ± 0.01 % IA/g
same,biodistribution muscle,24 h p.i.,0.02 ± 0.01 % IA/g
same,biodistribution spleen,24 h p.i.,0.89 ± 0.39 % IA/g
same,biodistribution tail,24 h p.i.,0.08 ± 0.01 % IA/g
same,biodistribution tumor PC3-PIP,24 h p.i.,17.7 ± 3.2 % IA/g
same,biodistribution tumor PC3-flu,24 h p.i.,1.6 ± 0.3 % IA/g
same,PC3-PIP-to-PC3-flu ratio,24 h p.i.,10.8
same,PC3-PIP-to-blood ratio,24 h p.i.,2351
same,PC3-PIP-to-kidney ratio,24 h p.i.,below 1
same,PC3-PIP-to-muscle ratio,24 h p.i.,739
same,PC3-PIP-to-spleen ratio,24 h p.i.,19.9
same,PC3-PIP-to-kidney ratio,"24 h p.i., listed as [177Lu]Lu-P18",0.7
same,PC3 flu tumor retention,,under 1.7 % IA/g
same,tumor-to-kidney ratio,,below 1
O=C([O-])CN1CCN(CC(=O)[O-])CCN(CC(=O)NC[C@H]2CC[C@H](C(=O)N[C@@H](C/C=C/c3ccccc3)C(=O)NCCCC[C@H](NC(=O)N[C@@H](CCC(=O)O)C(=O)O)C(=O)O)CC2)CCN(CC(=O)[O-])CC1.[177Lu+3] [[^177Lu]Lu-P17],biodistribution blood,1 h p.i.,0.18 ± 0.10 % IA/g
same,biodistribution bone,1 h p.i.,0.16 ± 0.03 % IA/g
same,biodistribution brain,1 h p.i.,0.02 ± 0.01 % IA/g
same,biodistribution heart,1 h p.i.,0.18 ± 0.02 % IA/g
same,biodistribution intestine,1 h p.i.,0.09 ± 0.01 % IA/g
same,biodistribution kidney,1 h p.i.,~110 % IA/g and 111 ± 33 % IA/g
same,biodistribution liver,1 h p.i.,0.15 ± 0.03 % IA/g
same,biodistribution lung,1 h p.i.,0.51 ± 0.06 % IA/g
same,biodistribution muscle,1 h p.i.,0.10 ± 0.03 % IA/g
same,biodistribution spleen,1 h p.i.,2–3 % IA/g and 2.3 ± 0.4 % IA/g
same,biodistribution tail,1 h p.i.,0.66 ± 0.09 % IA/g
same,biodistribution tumor PC3-PIP,1 h p.i.,14.1 ± 0.6 % IA/g
same,biodistribution tumor PC3-flu,1 h p.i.,0.50 ± 0.38 % IA/g
same,PC3-PIP-to-PC3-flu ratio,1 h p.i.,28.1
same,PC3-PIP-to-blood ratio,1 h p.i.,78.3
same,PC3-PIP-to-kidney ratio,1 h p.i.,0.13
same,PC3-PIP-to-muscle ratio,1 h p.i.,139
same,PC3-PIP-to-spleen ratio,1 h p.i.,6.3
same,biodistribution blood,2 h p.i.,0.09 ± 0.01 % IA/g
same,biodistribution bone,2 h p.i.,0.18 ± 0.01 % IA/g
same,biodistribution brain,2 h p.i.,0.02 ± 0.01 % IA/g
same,biodistribution heart,2 h p.i.,0.07 ± 0.02 % IA/g
same,biodistribution intestine,2 h p.i.,0.06 ± 0.02 % IA/g
same,biodistribution kidney,2 h p.i.,50.3 ± 10.5 % IA/g
same,biodistribution liver,2 h p.i.,0.12 ± 0.03 % IA/g
same,biodistribution lung,2 h p.i.,0.53 ± 0.03 % IA/g
same,biodistribution muscle,2 h p.i.,0.05 ± 0.10 % IA/g
same,biodistribution spleen,2 h p.i.,0.81 ± 0.12 % IA/g
same,biodistribution tail,2 h p.i.,0.35 ± 0.05 % IA/g
same,biodistribution tumor PC3-PIP,2 h p.i.,14.1 ± 4.5 % IA/g
same,biodistribution tumor PC3-flu,2 h p.i.,0.17 ± 0.16 % IA/g
same,PC3-PIP-to-PC3-flu ratio,2 h p.i.,81.8
same,PC3-PIP-to-blood ratio,2 h p.i.,161
same,PC3-PIP-to-kidney ratio,2 h p.i.,0.28
same,PC3-PIP-to-muscle ratio,2 h p.i.,268
same,PC3-PIP-to-spleen ratio,2 h p.i.,17.5
same,biodistribution blood,24 h p.i.,0.02 ± 0.02 % IA/g
same,biodistribution bone,24 h p.i.,0.79 ± 0.26 % IA/g
same,biodistribution brain,24 h p.i.,0.01 ± 0.01 % IA/g
same,biodistribution heart,24 h p.i.,0.03 ± 0.01 % IA/g
same,biodistribution intestine,24 h p.i.,0.05 ± 0.03 % IA/g
same,biodistribution kidney,24 h p.i.,~1 % IA/g and 1.1 ± 0.1 % IA/g
same,biodistribution liver,24 h p.i.,0.25 ± 0.01 % IA/g
same,biodistribution lung,24 h p.i.,0.09 ± 0.06 % IA/g
same,biodistribution muscle,24 h p.i.,0.01 ± 0.01 % IA/g
same,biodistribution spleen,24 h p.i.,0.12 ± 0.01 % IA/g
same,biodistribution tail,24 h p.i.,0.28 ± 0.03 % IA/g
same,biodistribution tumor PC3-PIP,24 h p.i.,10.5 ± 0.3 % IA/g
same,biodistribution tumor PC3-flu,24 h p.i.,0.16 ± 0.02 % IA/g
same,PC3-PIP-to-PC3-flu ratio,24 h p.i.,67.5
same,PC3-PIP-to-blood ratio,24 h p.i.,619
same,PC3-PIP-to-kidney ratio,24 h p.i.,9.8
same,PC3-PIP-to-muscle ratio,24 h p.i.,1620
same,PC3-PIP-to-spleen ratio,24 h p.i.,87.9
same,PC3 flu tumor retention,,under 1.7 % IA/g
same,tumor-to-kidney ratio,,below 1
"O=C([O-])CN1CCN(CC(=O)[O-])CCN(CC(=O)NC[C@H]2CC[C@H](C(=O)N[C@@H](Cc3ccc4ccccc4c3)C(=O)NCCCC[C@H](NC(=O)N[C@@H](CCC(=O)O)C(=O)O)C(=O)O)CC2)CCN(CC(=O)[O-])CC1.[177Lu+3] [[^177Lu]Lu-PSMA-617, reference compound]",biodistribution blood,1 h p.i.,0.19 ± 0.01 % IA/g
same,biodistribution brain,1 h p.i.,0.03 ± 0.02 % IA/g
same,biodistribution intestine,1 h p.i.,0.40 ± 0.34 % IA/g
same,biodistribution kidney,1 h p.i.,~110 % IA/g and 109±52 % IA/g
same,biodistribution lung,1 h p.i.,0.43 ± 0.19 % IA/g
same,biodistribution spleen,1 h p.i.,2–3 % IA/g and 2.8 ± 2.2 % IA/g
same,biodistribution tumor PC3-PIP,1 h p.i.,24.5 ± 13.0 % IA/g
same,biodistribution tumor PC3-flu,1 h p.i.,0.17 ± 0.13 % IA/g
same,PC3-PIP-to-PC3-flu ratio,1 h p.i.,144
same,PC3-PIP-to-blood ratio,1 h p.i.,130
same,PC3-PIP-to-kidney ratio,1 h p.i.,0.22
same,PC3-PIP-to-muscle ratio,1 h p.i.,168
same,PC3-PIP-to-spleen ratio,1 h p.i.,8.9
same,biodistribution blood,2 h p.i.,0.03 ± 0.02 % IA/g
same,biodistribution bone,2 h p.i.,1.6 ± 1.5 % IA/g
same,biodistribution brain,2 h p.i.,0.01 ± 0.01 % IA/g
same,biodistribution heart,2 h p.i.,0.02 ± 0.01 % IA/g
same,biodistribution intestine,2 h p.i.,0.04 ± 0.01 % IA/g
same,biodistribution kidney,2 h p.i.,12.9±10.2 % IA/g
same,biodistribution liver,2 h p.i.,0.05 ± 0.02 % IA/g
same,biodistribution lung,2 h p.i.,0.08 ± 0.03 % IA/g
same,biodistribution muscle,2 h p.i.,0.02 ± 0.01 % IA/g
same,biodistribution spleen,2 h p.i.,0.38 ± 0.17 % IA/g
same,biodistribution tail,2 h p.i.,0.05 ± 0.10 % IA/g
same,biodistribution tumor PC3-PIP,2 h p.i.,20.4 ± 5.1 % IA/g
same,biodistribution tumor PC3-flu,2 h p.i.,0.05 ± 0.01 % IA/g
same,PC3-PIP-to-PC3-flu ratio,2 h p.i.,447
same,PC3-PIP-to-blood ratio,2 h p.i.,620
same,PC3-PIP-to-kidney ratio,2 h p.i.,1.6
same,PC3-PIP-to-muscle ratio,2 h p.i.,971
same,PC3-PIP-to-spleen ratio,2 h p.i.,54.2
same,biodistribution blood,24 h p.i.,0.02 ± 0.03 % IA/g
same,biodistribution bone,24 h p.i.,0.04 ± 0.02 % IA/g
same,biodistribution brain,24 h p.i.,0.01 ± 0.01 % IA/g
same,biodistribution heart,24 h p.i.,0.01 ± 0.01 % IA/g
same,biodistribution intestine,24 h p.i.,0.01 ± 0.01 % IA/g
same,biodistribution kidney,24 h p.i.,~1 % IA/g and 0.64 ± 0.18 % IA/g
same,biodistribution muscle,24 h p.i.,0.01 ± 0.01 % IA/g
same,biodistribution tail,24 h p.i.,0.03 ± 0.01 % IA/g
same,biodistribution tumor PC3-PIP,24 h p.i.,22.3 ± 3.5 % IA/g
same,biodistribution tumor PC3-flu,24 h p.i.,0.51 ± 0.18 % IA/g
same,PC3-PIP-to-PC3-flu ratio,24 h p.i.,43.6
same,PC3-PIP-to-blood ratio,24 h p.i.,1306
same,PC3-PIP-to-kidney ratio,24 h p.i.,35.1
same,PC3-PIP-to-muscle ratio,24 h p.i.,5846
same,PC3-PIP-to-spleen ratio,24 h p.i.,201
